Biological target: T1, PvNMT (Plasmodium vivax, UniProt A5K1A2)
T1 construct: 6xHis + PreScission site (MGSSHHHHHHSAALEVLFQ/GP; Gly-Pro stays on the protein after cleavage) (N, cleaved yes); host or cells: E. coli Rosetta 2 (DE3) pRARE
Format: biochemical
Settings: Table 1; enzyme selectivity calculated as HsNMT IC50/PvNMT IC50
Text: NMT activity was indirectly measured through the detection of free CoA by the thiol-reactive probe 7-diethylamino-3-(4′-maleimidylphenyl)-4-methylcoumarin (CPM). […] .
This study aimed to identify NMT is with high selectivity for the P. vivax enzyme compared with human NMTs and high potency against the different stages of the P. vivax parasite. For this purpose, a structure-guided approach was applied using previously reported NMT inhibitors as scaffolds to develop a new generation of PvNMT-targeting compounds. The NMT activity of these inhibitors was first measured using biochemical assays through the detection of free CoA by the thiol-reactive probe 7-diethylamino-3-(4′-maleimidylphenyl)-4-methylcoumarin (CPM). Their antiparasitic activity were further evaluated by measuring blood-stage parasite load and inhibition of P. vivax liver-stage schizont and hypnozoite infection. […] Cytotoxicity was assessed in the human hepatoma HepG2 cell line. […]
To measure the activity of the purified PvNMT an assay was adapted from the literature. […] Fluorescent readings were taken on a Spectra M2 plate reader (Molecular Devices) with excitation at 385 nm and emission at 485 nm. Fluorescent intensity was measured continuously in one-minute intervals for 45 minutes. […] Fluorescence signal was obtained continuously for 45 min. […] IC50 calculations were calculated using Prism (GraphPad Software, Inc).

By UniProt entry, the sequences of proteins in these tests, tags left out.
UniProt A5K1A2, entry or part of it: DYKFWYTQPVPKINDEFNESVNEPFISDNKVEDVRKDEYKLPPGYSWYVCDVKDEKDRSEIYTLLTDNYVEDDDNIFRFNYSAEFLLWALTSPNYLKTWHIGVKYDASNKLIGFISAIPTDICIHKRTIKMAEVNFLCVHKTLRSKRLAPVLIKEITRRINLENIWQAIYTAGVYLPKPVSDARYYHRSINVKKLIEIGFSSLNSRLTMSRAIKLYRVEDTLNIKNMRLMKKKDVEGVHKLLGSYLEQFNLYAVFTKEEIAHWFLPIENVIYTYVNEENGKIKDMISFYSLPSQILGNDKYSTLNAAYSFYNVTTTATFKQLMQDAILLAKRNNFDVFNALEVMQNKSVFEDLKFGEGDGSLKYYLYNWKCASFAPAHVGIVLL

Cc1nn(C)c(C)c1CCOc1cccnc1-c1cccc(N2CCNCC2)c1 [Compound 12b, 1-(3-(3-(2-(1,3,5-trimethyl-1H-pyrazol-4-yl)ethoxy)pyridin-2-yl)phenyl)piperazine]
SI**: 259.2

Source: US20260217686A1, “N-Myristoyltransferase Inhibitors And Methods Of Use” (Seattle Children's Hospital (d/b/a Seattle Children's …, priority 2022, published 2026)
